This passage reports inhibition results from PubChem BioAssay AID720 (The Scripps Research Institute Molecular Screening Center, 2007).

The chains behind the UniProt entries cited, without tags or fusion partners.
UniProt P54760, whole entry: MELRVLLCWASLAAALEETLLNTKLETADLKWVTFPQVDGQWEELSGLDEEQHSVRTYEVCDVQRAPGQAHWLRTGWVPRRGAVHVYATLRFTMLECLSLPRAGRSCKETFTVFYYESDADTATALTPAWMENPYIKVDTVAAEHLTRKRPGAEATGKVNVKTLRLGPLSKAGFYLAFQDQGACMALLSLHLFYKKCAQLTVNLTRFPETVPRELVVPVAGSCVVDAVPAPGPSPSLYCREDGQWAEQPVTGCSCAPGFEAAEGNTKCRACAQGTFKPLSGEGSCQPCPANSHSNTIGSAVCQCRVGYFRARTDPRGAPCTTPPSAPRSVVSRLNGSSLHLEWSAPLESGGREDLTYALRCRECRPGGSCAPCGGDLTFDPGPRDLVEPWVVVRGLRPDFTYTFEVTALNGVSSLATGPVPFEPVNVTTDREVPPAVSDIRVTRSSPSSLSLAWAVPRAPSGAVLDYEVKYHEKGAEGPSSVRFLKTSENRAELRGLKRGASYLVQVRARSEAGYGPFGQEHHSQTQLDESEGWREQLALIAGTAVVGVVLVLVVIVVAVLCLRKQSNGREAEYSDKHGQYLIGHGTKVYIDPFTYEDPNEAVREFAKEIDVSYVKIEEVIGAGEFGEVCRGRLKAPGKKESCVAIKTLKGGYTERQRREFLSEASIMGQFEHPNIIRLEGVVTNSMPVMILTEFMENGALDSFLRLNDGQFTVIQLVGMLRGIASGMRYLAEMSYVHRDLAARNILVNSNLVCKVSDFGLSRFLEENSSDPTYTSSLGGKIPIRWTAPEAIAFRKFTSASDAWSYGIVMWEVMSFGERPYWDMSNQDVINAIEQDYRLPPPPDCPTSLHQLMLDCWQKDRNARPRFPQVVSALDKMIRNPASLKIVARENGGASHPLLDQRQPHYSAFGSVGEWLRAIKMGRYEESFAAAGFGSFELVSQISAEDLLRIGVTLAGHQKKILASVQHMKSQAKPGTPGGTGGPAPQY

The entries are a selection whose mix differs from that of the whole data set. Some of these compounds have results that are not shown, active ones among them. Active and inactive are the calls of the source.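 The calls were made as follows: active = inhibition above the screen-wide mean inhibition plus 3 SD (cut at about 15% in these data); inactive = the rest.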

The assay has as its target Ephrin type-B receptor 4 (Homo sapiens) (UniProt P54760). Kind of assay: blockers of EphB4 ligand binding – biochemical, TNYL-RAW peptide probe, fluorescence polarization, primary screen (AID 720).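 Also: 0% = DMSO wells and 100% = excess unlabeled TNYL-RAW peptide.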 Particulars: EphB4 LBD / TNYL-RAW-Alexa532 peptide, at 7 µM, stronger effect = higher value. (In general: In fluorescence polarisation assays a small probe gives low polarisation when free and higher when bound to something large.)
As for `O=C(OC1CN2CCC1CC2)C(CO)(c1ccccc1)c1ccccc1` (stereo not drawn), the inhibition was inactive: -4.24%.

`CN(C)c1cccc(C(=O)NCC2(N(C)C)CCCCC2)c1`: the inhibition was inactive: -1.72%.

On to `CC(C)N1C(=O)CC2(CCN(CCOC(=O)C(O)(c3ccccc3)c3ccccc3)CC2)C1=O`, for which the inhibition is inactive: -0.47%.

By inhibition is commonly meant the relative decrease from the control value, in per cent.
